Laboratory results taken from PubChem BioAssay AID746 (The Scripps Research Institute Molecular Screening Center, 2007).
The entries are a selection whose mix differs from that of the whole data set. Some results for these compounds are left out of this collection, so the calls shown say nothing about other tests. The source made the active and inactive calls. No stated cut-off is given here; in the data, active means inhibition above about 17%; inactive means the rest.

Protein sequences, listed by entry. Tags and fused reporters are not part of them.
UniProt P53779, whole entry: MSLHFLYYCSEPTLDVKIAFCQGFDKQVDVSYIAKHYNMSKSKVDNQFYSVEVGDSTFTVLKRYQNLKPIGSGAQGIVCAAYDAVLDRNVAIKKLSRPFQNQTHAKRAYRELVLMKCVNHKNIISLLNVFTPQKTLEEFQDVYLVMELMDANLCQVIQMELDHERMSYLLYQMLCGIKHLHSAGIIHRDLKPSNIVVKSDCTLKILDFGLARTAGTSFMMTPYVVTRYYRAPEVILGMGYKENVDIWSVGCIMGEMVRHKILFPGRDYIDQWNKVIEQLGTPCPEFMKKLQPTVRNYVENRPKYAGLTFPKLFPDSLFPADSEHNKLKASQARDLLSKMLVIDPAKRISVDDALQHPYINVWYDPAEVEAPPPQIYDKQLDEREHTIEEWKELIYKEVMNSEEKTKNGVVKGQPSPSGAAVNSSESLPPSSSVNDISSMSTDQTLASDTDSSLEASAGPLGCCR

target: Mitogen-activated protein kinase 10 (Homo sapiens) (UniProt P53779); assay: inhibition of human JNK3 enzyme – biochemical, purified enzyme, primary screen (AID 746); settings: purified JNK3 kinase activity, HTS; at 8 µM; hits give high values;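 further: 0% = DMSO and 100% = reference inhibitor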

Structure (SMILES) | inhibition
O=C(OC1CN2CCC1CC2)C(CO)(c1ccccc1)c1ccccc1 (configuration not stated) | inactive: 1.1%
CN(C)c1cccc(C(=O)NCC2(N(C)C)CCCCC2)c1 | inactive: -8.6%
